Values quoted from earlier work as cited in paper PMC11634579, “Network pharmacology, experimental validation and pharmacokinetics integrated strategy to reveal pharmacological mechanism of goutengsan on methamphetamine dependence” (Frontiers in Pharmacology, 2024).

Set-up: method as in Ru et al., 2014
Settings: obtained from TCMSP database; ref Ru et al., 2014; cited from earlier work

SMILES | OB% (oral bioavailability)
CC[C@H](CC[C@@H](C)[C@H]1CC[C@H]2[C@@H]3CC=C4C[C@@H](O)CC[C@]4(C)[C@H]3CC[C@]12C)C(C)C [Beta-sitosterol] | 36.91%
CC[C@@H](CC[C@@H](C)[C@H]1CC[C@H]2[C@@H]3CC=C4C[C@@H](O)CC[C@]4(C)[C@H]3CC[C@]12C)C(C)C [Clionasterol] | 36.91%
CC1(C)CC[C@]2(C(=O)O)CC[C@]3(C)C(=CC[C@@H]4[C@@]5(C)CC[C@H](O)[C@@](C)(CO)[C@@H]5CC[C@]43C)[C@@H]2C1 [Hederagenin] | 36.91%
CC[C@H](CC[C@@H](C)[C@H]1CC[C@H]2[C@@H]3CC=C4C[C@@H](O)CC[C@]4(C)[C@H]3CC[C@]12C)C(C)C [Sitosterol] | 36.91%
